Reference: paper PMC8578508

Assays:
[1] = molecular target: BRD4^1–579, phosphorylated in vitro by CK2 (human) (UniProt O60885); test: SEC-MALS + AUC; SEC-MALS on Superose 6 in 10 mM Tris-HCl pH 7.5 with 250 mM or 1 M NaCl; AUC sedimentation velocity and equilibrium in the same buffer, samples between 0.1 µM and 15 μM; oligomeric state of the protein alone
[2] = molecular target: BRD4^1–579, purified from insect cells (phosphorylated) (human) (UniProt O60885); test: as above
[3] = molecular target: BRD4^1–722, phosphorylated in vitro by CK2 (human) (UniProt O60885); test: SEC-MALS; BRD4^1–722 WT, 7A and 6A produced in E. coli and phosphorylated by CK2; Superose 6, 10 mM Tris-HCl pH 7.5
[4] = molecular target: BRD4^1–722, phosphorylated in vitro by CK2 (human) (UniProt O60885); test: SEC-MALS + AUC; SEC-MALS on Superose 6 in 10 mM Tris-HCl pH 7.5 with 250 mM or 1 M NaCl; AUC sedimentation velocity and equilibrium in the same buffer, samples between 0.1 µM and 15 μM; oligomeric state of the protein alone
[5] = molecular target: BRD4^1–722, purified from insect cells (phosphorylated) (human) (UniProt O60885); test: as above

Substance “BRD4^1–579, phosphorylated in vitro by CK2 (from UniProt O60885 1-579) (domain or fragment)” has a stoichiometry N [1] of 2.
For “BRD4^1–579, purified from insect cells (phosphorylated) (from UniProt O60885 1-579) (domain or fragment)”, the stoichiometry N [2] was 2.
Work on “BRD4^1–722, phosphorylated in vitro by CK2 (from UniProt O60885-2 1-722) (natural protein)” yielded a stoichiometry N [3] of 2 and a stoichiometry N [4] of 2.
Work on “BRD4^1–722, purified from insect cells (phosphorylated) (from UniProt O60885-2 1-722) (natural protein)” yielded a stoichiometry N [5] of 2.
